From PMC3097170 (The Journal of pharmacology and experimental therapeutics, 2011)

Sequences of proteins named here, by UniProt entry; tags and fusion partners are left off.
UniProt P42866, whole entry: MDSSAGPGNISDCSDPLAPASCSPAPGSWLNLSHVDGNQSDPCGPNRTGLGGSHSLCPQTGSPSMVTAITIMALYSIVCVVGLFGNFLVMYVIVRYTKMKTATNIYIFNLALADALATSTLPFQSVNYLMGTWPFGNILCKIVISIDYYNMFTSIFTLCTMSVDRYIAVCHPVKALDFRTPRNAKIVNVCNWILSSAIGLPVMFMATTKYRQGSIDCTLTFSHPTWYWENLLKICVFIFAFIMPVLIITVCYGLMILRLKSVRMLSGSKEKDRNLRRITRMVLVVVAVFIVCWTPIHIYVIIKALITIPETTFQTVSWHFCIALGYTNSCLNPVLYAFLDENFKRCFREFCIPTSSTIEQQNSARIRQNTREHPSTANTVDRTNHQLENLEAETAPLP

Tests used:
MOR [1] = target: T1, MOR (Mus musculus, UniProt P42866)
MOR [2] = target: T1, MOR; conditions: 1 μM agonist, 30 minutes, cells expressing MOR alone

Structure (SMILES): CN1CC[C@]23c4c5ccc(O)c4O[C@H]2[C@@H](O)C=C[C@H]3[C@H]1C5 [Morphine, morphine]
- Emax (RFU) (MOR [1]): 598 ± 36 RFU
- agonist-induced endocytosis of MOR (MOR [2]): did not promote endocytosis
